Publication PMC3454369, “Functional Redundancy of Class I Phosphoinositide 3-Kinase (PI3K) Isoforms in Signaling Growth Factor-Mediated Human Neutrophil Survival” (PLoS ONE, 2012)
Where two headings read alike, the source gives them in different places.

Protein sequences, listed by entry. Tags and fused reporters are not part of them. Lines headed by an entry give the natural chain unless they say otherwise; changes in a name come on top.
UniProt P42338, whole entry, species assumed: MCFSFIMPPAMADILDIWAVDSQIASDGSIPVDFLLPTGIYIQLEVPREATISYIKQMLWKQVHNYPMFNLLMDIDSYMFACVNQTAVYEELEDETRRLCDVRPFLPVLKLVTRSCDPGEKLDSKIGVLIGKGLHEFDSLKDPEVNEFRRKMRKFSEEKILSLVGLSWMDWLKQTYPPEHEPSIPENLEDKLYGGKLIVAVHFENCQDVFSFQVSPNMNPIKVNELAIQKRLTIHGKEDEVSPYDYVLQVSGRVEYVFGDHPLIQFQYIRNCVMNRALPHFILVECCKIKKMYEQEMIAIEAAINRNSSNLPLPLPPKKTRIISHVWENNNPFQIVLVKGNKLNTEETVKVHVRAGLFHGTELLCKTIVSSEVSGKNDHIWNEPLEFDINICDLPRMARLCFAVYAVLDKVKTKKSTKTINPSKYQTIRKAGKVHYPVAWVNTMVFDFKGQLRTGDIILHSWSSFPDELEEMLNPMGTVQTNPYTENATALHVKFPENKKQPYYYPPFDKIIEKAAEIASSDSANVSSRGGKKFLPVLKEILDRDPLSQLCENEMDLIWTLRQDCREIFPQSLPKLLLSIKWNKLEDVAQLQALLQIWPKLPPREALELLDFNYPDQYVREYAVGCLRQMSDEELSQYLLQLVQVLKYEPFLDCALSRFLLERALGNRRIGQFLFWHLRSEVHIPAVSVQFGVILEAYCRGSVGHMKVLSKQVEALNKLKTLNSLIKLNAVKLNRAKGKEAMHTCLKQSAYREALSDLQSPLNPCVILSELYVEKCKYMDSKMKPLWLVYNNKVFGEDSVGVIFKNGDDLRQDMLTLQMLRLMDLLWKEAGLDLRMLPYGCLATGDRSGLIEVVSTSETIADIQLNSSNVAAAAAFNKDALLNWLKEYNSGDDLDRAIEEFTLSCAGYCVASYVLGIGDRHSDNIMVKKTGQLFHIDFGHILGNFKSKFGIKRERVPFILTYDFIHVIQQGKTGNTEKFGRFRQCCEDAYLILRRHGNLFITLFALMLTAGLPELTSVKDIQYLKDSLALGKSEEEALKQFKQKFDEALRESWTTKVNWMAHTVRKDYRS
UniProt P48736, whole entry, species assumed: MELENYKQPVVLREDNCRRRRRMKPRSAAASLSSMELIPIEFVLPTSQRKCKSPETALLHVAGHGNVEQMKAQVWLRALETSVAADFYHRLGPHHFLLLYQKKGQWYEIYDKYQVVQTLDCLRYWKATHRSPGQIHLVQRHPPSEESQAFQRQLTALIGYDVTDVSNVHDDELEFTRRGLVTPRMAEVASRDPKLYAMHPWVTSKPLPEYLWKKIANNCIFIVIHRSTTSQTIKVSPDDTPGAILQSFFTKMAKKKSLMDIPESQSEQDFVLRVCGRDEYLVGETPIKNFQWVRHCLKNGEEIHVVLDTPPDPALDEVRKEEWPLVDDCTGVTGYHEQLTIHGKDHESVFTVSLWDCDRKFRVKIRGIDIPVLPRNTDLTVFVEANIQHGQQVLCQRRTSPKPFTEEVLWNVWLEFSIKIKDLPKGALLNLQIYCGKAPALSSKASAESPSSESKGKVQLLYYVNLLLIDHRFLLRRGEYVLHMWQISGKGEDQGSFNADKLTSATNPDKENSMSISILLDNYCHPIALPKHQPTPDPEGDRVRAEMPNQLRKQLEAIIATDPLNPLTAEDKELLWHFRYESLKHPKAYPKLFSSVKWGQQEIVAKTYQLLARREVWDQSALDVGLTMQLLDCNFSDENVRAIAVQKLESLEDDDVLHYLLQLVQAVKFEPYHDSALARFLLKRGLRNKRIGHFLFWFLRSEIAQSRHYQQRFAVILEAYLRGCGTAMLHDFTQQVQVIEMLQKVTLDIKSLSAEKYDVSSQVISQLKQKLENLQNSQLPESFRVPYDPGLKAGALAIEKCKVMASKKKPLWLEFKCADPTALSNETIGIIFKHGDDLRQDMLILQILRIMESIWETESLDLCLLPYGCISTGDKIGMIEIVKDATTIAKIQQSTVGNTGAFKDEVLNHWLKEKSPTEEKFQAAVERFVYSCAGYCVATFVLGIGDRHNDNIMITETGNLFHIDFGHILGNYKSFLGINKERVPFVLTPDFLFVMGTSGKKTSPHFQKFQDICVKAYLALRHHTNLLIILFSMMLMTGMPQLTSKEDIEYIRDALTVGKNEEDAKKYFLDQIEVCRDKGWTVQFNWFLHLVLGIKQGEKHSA
UniProt O00329, whole entry, species assumed: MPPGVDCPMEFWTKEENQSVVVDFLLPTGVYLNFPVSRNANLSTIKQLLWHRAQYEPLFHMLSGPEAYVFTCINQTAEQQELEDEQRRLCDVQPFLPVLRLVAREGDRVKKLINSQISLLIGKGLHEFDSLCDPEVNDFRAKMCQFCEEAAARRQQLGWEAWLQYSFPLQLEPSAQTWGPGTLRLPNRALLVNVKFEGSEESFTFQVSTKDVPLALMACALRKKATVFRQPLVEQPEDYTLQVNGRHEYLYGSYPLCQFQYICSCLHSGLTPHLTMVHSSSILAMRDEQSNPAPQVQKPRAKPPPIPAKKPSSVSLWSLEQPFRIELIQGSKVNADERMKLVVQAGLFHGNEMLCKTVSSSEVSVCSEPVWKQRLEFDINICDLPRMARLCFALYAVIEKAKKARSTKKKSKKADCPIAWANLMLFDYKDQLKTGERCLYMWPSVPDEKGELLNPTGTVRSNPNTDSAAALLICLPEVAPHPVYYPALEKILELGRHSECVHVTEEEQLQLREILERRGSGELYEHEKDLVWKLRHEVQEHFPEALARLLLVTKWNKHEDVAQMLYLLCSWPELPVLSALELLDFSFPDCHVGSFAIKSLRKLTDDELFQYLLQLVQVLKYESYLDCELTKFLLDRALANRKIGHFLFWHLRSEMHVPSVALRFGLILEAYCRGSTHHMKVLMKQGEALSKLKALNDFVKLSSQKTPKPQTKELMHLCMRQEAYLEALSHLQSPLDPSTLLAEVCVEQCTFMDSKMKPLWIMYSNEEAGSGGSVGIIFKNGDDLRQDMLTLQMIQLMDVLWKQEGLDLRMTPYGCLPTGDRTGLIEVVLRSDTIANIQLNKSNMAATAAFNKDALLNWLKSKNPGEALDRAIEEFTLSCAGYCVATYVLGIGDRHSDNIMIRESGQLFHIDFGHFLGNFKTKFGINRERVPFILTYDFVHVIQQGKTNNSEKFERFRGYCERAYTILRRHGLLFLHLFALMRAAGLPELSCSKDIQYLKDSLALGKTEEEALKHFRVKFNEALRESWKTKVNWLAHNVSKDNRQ
UniProt P42336, whole entry, species assumed: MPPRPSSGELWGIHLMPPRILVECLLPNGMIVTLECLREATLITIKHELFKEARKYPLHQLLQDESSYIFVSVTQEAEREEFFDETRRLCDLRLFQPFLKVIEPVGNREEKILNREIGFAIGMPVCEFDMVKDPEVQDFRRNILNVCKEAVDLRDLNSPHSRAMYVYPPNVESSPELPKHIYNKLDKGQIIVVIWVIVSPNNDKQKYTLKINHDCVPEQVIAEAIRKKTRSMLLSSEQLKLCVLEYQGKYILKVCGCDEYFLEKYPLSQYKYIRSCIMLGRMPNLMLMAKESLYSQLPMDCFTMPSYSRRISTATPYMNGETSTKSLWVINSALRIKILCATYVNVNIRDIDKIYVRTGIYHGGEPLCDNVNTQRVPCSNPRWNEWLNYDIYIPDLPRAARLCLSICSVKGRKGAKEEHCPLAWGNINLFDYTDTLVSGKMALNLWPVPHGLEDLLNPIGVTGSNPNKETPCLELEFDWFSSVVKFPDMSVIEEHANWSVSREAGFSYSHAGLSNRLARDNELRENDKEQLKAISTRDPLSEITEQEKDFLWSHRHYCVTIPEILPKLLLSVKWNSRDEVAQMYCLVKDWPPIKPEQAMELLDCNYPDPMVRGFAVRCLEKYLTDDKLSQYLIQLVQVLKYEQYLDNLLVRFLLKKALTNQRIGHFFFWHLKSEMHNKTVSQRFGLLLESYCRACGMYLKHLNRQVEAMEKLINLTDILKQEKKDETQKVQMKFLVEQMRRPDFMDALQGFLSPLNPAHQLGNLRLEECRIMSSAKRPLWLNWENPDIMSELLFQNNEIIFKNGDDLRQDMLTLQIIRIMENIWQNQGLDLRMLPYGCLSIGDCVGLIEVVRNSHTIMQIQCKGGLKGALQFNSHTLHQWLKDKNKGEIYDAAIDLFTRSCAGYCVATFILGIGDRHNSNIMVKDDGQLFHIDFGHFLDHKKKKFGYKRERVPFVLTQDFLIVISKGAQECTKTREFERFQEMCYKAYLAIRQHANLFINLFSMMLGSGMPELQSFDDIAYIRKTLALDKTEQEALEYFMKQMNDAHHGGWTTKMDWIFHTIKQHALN

What was measured:
[1] = biological target: T1, p110β (Homo sapiens, UniProt P42338); experiment: biochemical
[2] = biological target: p110γ (Homo sapiens, UniProt P48736); experiment: biochemical
[3] = biological target: p110δ (Homo sapiens, UniProt O00329); experiment: biochemical
[4] = biological target: p110α (Homo sapiens, UniProt P42336); experiment: biochemical
[5] = biological target: T1, p110β; settings: in vitro kinase assay; data compiled from published work; cited from earlier work

Work on NC(=O)[C@@H]1CCCN1C(=O)Nc1nc2ccc(-c3cnc(N)c(C(F)(F)F)c3)cc2s1 [NVS-PI3-2] yielded an IC50 [1] of 5500 nM, an IC50 [2] of 2400 nM and an IC50 [3] of 980 nM. For the same compound, the IC50 [4] was 75 nM.

In the case of Cc1cc(C(C)Nc2ccccc2)c2nc(N3CCOCC3)cc(=O)n2c1 (centres unmarked) [TGX-221], the IC50 [5] is given as 7 nM.
